In patent publication US20250170111A1, “PYRIDINE BASED CHALCONE ANALOGS AS THERAPEUTIC AGENTS AND USE THEREOF” (QATAR UNIVERSITY, priority 2023, published 2025):

Tested on: PC3 and DU145

Q: For COc1ccc2c(c1)CC/C(=C\c1cccn1C1CC1)C2=O [Compound 7, (E)-2-((1-cyclopropyl-1H-pyrrol-2-yl)methylene)-6-methoxy-3,4-dihydronaphthalen-1 (2H)-one], which “cytotoxicity in general screening (in words)” value is on record?
A: comparable cytotoxicity to DK14
